Assay: Stability of parent THC spiked into neat human oral fluid, with or without the reagent component
Assay type: physicochemical
Conditions: neat human oral fluid modified with the reagent component, 2-week period

## CCCCCc1cc(O)c2c(c1)OC(C)(C)[C@@H]1CCC(C)=C[C@@H]21 [THC, Δ^9-tetrahydrocannabinol]
  stability of parent THC: stable
